Source: patent publication US6943183B2 (Pfizer Inc, priority 2000, dated 2005)

Chains of the proteins cited; added tags and fusions are not shown.
UniProt Q02293, whole entry: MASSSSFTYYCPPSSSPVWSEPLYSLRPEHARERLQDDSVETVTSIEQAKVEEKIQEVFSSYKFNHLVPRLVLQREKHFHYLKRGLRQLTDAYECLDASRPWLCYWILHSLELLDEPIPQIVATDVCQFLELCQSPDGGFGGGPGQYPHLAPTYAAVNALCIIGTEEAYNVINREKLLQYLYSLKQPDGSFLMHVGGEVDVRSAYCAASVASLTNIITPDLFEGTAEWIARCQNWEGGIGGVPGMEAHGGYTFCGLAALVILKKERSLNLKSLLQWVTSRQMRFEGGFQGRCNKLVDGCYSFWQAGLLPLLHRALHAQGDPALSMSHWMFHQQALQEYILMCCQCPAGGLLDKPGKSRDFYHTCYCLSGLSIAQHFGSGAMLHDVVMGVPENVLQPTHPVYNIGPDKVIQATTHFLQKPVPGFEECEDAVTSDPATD

Target: SF9 affinity purified rat FPT (Rattus norvegicus, UniProt Q02293+Q04631)
Test: PFT (FPT) inhibitory activity assay, radiolabeled farnesyl pyrophosphate and biotinyl peptide, streptavidin beads
Conditions: read-out: FTase IC50 nM; HEPES buffer pH 7.4, 30° C., 30 minutes

Row | IC50 [nM] | Structure (SMILES)
1 | 8 | O=C1CCCc2c1ccc(O[C@H](Cn1ccnc1)c1ccccc1)c2CSc1ccc2ccccc2c1
2 | 4 | COC(=O)CCSCc1c(O[C@H](Cn2ccnc2)c2ccccc2)ccc2c1CCCC2=O
3 | 1 | CC(C)Oc1ccccc1OCc1c(O[C@H](Cn2ccnc2)c2ccccc2)ccc2c1CCCC2=O
4 | 3 | CC(=O)Nc1ccc(SCc2c(O[C@H](Cn3ccnc3)c3ccccc3)ccc3c2CCCC3=O)cc1
